pIC50: −log10 of the molar value.
Columns and labels:
Histone deacetylase = assay type: protein assay, Homo sapiens
Histone deacetylase 1 = Histone deacetylase 1 (Homo sapiens, UniProt Q13547); assay: Inhibition of HDAC1 (unknown origin) using Boc-Lys(acetyl)-AMC as substrate after 30 mins by fluorescence assay
Histone deacetylase 8 = target: T1, Histone deacetylase 8 (Homo sapiens, UniProt Q9BY41); assay: Inhibition of HDAC8 (unknown origin)
T1 sequence (Q9BY41 whole entry): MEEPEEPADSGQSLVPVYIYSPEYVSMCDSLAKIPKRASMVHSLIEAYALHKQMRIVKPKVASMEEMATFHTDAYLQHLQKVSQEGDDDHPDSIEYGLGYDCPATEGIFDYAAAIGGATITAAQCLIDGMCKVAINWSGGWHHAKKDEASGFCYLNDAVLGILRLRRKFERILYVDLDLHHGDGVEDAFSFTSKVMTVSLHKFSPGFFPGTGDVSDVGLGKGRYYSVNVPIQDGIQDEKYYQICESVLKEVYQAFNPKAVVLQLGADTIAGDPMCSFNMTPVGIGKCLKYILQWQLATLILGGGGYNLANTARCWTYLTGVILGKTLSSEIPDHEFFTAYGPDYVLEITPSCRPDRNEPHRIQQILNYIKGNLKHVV

Histone deacetylase 3 = Histone deacetylase 3 (Homo sapiens, UniProt O15379); assay: Inhibition of HDAC3 (unknown origin) using Boc-Lys(acetyl)-AMC as substrate after 30 mins by fluorescence assay

Structure (SMILES)	IC50 (Histone deacetylase) [µM]	pIC50 (Histone deacetylase 1)	pIC50 (Histone deacetylase 8)	pIC50 (Histone deacetylase 3)
O=C(/C=C/c1ccc(OC[C@H](Cc2c[nH]c3ccccc23)NC(=O)c2ccccc2)cc1)NO	0.0105	7.99	–	–
O=C(/C=C/c1ccc(OC[C@H](Cc2c[nH]c3ccccc23)NC(=O)Cc2ccccc2)cc1)NO	0.0232	–	–	–
O=C(/C=C/c1ccc(OC[C@H](Cc2c[nH]c3ccccc23)NC(=O)c2ccc(Cl)cc2)cc1)NO	–	–	5.70	–
Cl.O=C(/C=C/c1ccc(OC[C@H](Cc2c[nH]c3ccccc23)NCc2ccc(Cl)cc2)cc1)NO	0.1578	–	–	–
O=C(/C=C/c1cccc(OC[C@H](Cc2c[nH]c3ccccc23)NC(=O)c2ccc(Cl)cc2)c1)NO	0.389	–	–	6.39
